According to paper PMC9186412, “Rational Framework for the Design of Trp- and Arg-Rich Peptide Antibiotics Against Multidrug-Resistant Bacteria” (Frontiers in Microbiology, 2022):

System: ESKAPE pathogens and Escherichia coli
Settings: initial MDR panel of GNB and GPB (ESKAPE pathogens and E. coli); MHB2
Experimental: Bacteria were incubated with each of the indicated peptides in MHB2. […] To assess bactericidal properties of the peptide, the assay was modified by using 15% fetal bovine serum (FBS, for a more physiologically relevant test condition) mixed with 25% MHB2 and 60% PBS. […] Data were analyzed using GraphPad Prism software.

## CC[C@H](C)[C@H](N)C(=O)N[C@@H](CC(C)C)C(=O)N1CCC[C@H]1C(=O)N[C@@H](Cc1c[nH]c2ccccc12)C(=O)N[C@@H](CCCCN)C(=O)N[C@@H](Cc1c[nH]c2ccccc12)C(=O)N1CCC[C@H]1C(=O)N[C@@H](Cc1c[nH]c2ccccc12)C(=O)N[C@@H](Cc1c[nH]c2ccccc12)C(=O)N1CCC[C@H]1C(=O)N[C@@H](Cc1c[nH]c2ccccc12)C(=O)N[C@@H](CCCNC(=N)N)C(=O)N[C@@H](CCCNC(=N)N)C(N)=O [indolicidin]
  mean MIC: > 10 µM
